Data from publication PMC4734667 (PLoS ONE, 2016).

Protein sequences, listed by entry. Tags and fused reporters are not part of them. Residues count along the entry.
UniProt O15399, 28-1336: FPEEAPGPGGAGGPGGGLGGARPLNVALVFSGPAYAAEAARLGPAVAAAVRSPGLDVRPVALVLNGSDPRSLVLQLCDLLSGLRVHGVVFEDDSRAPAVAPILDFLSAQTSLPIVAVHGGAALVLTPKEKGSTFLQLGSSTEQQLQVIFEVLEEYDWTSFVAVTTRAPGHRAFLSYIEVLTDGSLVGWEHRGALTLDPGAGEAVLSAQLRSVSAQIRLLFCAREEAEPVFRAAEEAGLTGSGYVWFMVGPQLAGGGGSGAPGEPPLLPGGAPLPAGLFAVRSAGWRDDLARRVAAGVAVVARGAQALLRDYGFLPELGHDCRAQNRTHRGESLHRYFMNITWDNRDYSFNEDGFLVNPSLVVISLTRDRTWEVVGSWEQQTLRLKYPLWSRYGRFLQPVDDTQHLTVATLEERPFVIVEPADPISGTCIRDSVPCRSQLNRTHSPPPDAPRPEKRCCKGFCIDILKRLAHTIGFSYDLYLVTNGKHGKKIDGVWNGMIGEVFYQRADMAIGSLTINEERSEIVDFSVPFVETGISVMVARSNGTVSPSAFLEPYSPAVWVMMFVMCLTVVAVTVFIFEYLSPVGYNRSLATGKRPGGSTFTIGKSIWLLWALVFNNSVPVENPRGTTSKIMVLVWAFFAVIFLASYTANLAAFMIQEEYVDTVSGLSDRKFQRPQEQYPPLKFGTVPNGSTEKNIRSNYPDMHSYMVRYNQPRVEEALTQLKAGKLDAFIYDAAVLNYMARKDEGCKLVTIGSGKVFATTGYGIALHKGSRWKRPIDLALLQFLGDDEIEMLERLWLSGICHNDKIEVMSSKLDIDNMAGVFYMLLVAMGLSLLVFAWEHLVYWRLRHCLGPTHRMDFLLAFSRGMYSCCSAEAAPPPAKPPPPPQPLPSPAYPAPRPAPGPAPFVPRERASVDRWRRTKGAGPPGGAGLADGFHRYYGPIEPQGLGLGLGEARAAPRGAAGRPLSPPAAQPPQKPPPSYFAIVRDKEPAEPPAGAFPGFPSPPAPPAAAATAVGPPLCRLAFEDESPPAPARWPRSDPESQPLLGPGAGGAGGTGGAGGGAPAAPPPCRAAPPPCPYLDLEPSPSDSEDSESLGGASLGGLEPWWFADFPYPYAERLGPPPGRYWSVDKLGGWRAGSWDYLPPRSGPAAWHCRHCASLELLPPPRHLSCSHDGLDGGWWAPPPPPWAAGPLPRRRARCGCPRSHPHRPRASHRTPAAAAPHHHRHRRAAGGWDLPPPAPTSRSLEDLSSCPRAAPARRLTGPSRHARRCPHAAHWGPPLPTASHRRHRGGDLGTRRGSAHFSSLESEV
UniProt Q13224, 27-1484: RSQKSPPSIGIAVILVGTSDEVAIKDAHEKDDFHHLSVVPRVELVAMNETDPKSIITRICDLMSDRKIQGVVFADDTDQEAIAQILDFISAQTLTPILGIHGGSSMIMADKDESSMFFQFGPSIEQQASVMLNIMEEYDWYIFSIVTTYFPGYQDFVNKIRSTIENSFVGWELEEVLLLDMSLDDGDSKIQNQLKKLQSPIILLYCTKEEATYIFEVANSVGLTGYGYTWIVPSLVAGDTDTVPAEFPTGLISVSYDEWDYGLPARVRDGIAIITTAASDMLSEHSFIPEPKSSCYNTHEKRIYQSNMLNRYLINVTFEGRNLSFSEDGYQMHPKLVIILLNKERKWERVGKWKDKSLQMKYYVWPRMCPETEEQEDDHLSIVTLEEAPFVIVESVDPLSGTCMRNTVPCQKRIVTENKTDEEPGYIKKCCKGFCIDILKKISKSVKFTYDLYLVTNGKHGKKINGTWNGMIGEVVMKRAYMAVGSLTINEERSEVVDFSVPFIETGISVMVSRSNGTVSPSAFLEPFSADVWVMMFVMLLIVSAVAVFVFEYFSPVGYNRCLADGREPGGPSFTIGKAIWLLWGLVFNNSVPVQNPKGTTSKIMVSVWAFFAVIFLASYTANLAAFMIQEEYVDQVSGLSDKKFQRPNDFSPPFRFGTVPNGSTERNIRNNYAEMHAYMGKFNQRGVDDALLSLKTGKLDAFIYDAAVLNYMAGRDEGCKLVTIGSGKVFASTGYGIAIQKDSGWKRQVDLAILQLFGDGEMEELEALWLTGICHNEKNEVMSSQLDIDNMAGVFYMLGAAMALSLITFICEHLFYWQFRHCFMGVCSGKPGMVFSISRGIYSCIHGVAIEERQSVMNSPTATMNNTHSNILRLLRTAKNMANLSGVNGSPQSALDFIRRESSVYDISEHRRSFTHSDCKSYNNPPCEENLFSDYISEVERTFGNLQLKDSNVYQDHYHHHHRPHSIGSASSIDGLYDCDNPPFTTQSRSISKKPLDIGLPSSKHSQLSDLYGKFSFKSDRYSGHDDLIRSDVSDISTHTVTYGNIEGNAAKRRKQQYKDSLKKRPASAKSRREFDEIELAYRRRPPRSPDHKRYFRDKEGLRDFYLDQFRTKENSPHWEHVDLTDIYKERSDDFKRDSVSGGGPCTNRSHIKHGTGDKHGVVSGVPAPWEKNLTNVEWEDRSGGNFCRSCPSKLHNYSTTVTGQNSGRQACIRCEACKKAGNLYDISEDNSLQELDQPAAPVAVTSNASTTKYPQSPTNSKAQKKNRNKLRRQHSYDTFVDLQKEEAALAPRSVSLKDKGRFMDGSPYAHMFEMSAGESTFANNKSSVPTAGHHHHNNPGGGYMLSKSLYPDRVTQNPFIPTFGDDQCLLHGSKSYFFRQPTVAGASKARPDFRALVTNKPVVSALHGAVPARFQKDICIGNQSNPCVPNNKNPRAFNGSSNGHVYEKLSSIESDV

Experiments:
human GluN2D = biological target: T1, human GluN2D (Homo sapiens, UniProt O15399+Q05586); assay: Ca2+ fluorescence (fluo-8) assay in HEK cells expressing GluN2D; assay type: cell-based; settings: HEK293, read-out: GluN2D % Inhib. @ 10 μM ± SEM (n)
T1 construct: expressed in transfected cells; host or cells: HEK cells

human GluN2B = biological target: T2, human GluN2B (Homo sapiens, UniProt Q05586+Q13224); assay: Ca2+ fluorescence (fluo-8) assay in HEK cells expressing GluN2B; assay type: cell-based; settings: HEK293, read-out: GluN2B % Inhib. @ 10 μM ± SEM (n)
T2 construct: expressed in transfected cells; host or cells: HEK cells

With `O=C(NNC(=O)c1ccc(CNS(=O)(=O)c2ccc(F)c(Cl)c2)cc1)c1ccccc1` [TCN-201, 3-chloro-4-fluoro-N-[4-[[2-(phenylcarbonyl)hydrazino]carbonyl]benzyl]benzenesulfonamide, reference compound] the inhibition at 10 µM (human GluN2D) was -8 ± 6% and the inhibition at 10 µM (human GluN2B) was 30 ± 10%.
